# Binding of CDR-mutated scFvs to a peptide of the spike HR2 region

Values reported by Li et al. 2023, doi:10.1038/s41467-023-39022-2 (FLAb copy).

Target: peptide PDVDLGDISGINAS, taken from heptad repeat 2 (HR2) of SARS-CoV-2 spike.

Ab-14 is the parent antibody, in scFv form: VH, then the linker GGGGSGGGGSGGGGS, then VL. The heavy chain is unchanged in all variants.
VH: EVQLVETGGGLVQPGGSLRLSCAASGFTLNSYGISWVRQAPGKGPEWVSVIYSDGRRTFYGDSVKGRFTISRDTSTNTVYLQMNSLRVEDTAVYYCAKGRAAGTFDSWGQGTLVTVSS
VL: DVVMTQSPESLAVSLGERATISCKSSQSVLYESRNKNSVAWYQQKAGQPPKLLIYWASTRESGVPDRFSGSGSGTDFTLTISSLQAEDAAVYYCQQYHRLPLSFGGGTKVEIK

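Designed CDR sequences, proposed from the first random library and measured here. Group labels follow the data file (Ctrl: baseline library sampled from a position-specific scoring matrix, with some repeated check sequences; En: ensemble of fine-tuned language models; GP: Gaussian process model; HC: hill climbing; Gen: genetic algorithm; Gibbs: Gibbs sampling; a sequence that several methods proposed may carry one label only). In AlphaSeq, yeast of one mating type display the scFv and yeast of the other type display the target. The frequency of each diploid, read from paired DNA barcodes, reflects how well the two displayed proteins bind. The ratio of observed to expected reads was calibrated, replicate by replicate, on BCL2-family standards whose Kd was known from biolayer interferometry. Each pool was mated in six replicate cultures.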

Variants are written as CDR1, CDR2 and CDR3 of the light chain (limits as in the source). Parent: KSSQSVLYESRNKNSVA, WASTRES, QQYHRLPLS.
Values are log10 of the apparent Kd in nM; lower means stronger binding.
A mean of the replicates is given; it leaves out those without a signal.
Values of this round are not directly comparable with the first-round values of the same sequences.
Background: pairings of all light chain designs with three empty control strains gave a value in 4% of cases (median 2.64, 5th percentile 1.59). Values in that range, when seen in few replicates, are hard to tell from nonspecific mating. For each scFv, signals with the empty controls are counted beside the result.
The parent sequence was in this pool as ten entries: three were never detected, three once, and four in most replicates, with averages from 0.34 to 2.37.
The authors' rule: three or more of the six replicates give a measured affinity, fewer mean a poor binder.

Result 0.25 (6 of 6 replicates; controls 1 of 18), variant KSSISGLYESRMKNSVA / EASTRES / QQYHRLPLS [GP_HC].
Result 0.01 (6 of 6 replicates; controls 1 of 18), variant DLTGMFNMAGQQQHSIA / NGGIKIE / QQYNRLPLA [En_Gibbs].
Result 1.80 (6 of 6 replicates; controls 1 of 18), variant HITYGMYVSGRYKSNIA / QAETRMK / QQYDRLPLM [En_Gen].
Result 1.64 (4 of 6 replicates; controls 0 of 18), variant KFSQSVLTESRNKNSVA / WASTRES / QEYHRLPLS [Ctrl].
Result 0.58 (6 of 6 replicates; controls 2 of 18), variant KLSQSVLYESRNKNSVA / WASTREP / QQYHRLPLS [Ctrl].
Result 0.54 (6 of 6 replicates; controls 2 of 18), variant TIGGVTNGISRSKNSVA / EQSTRED / QQYDRLPLS [En_HC].
Result 0.86 (6 of 6 replicates; controls 0 of 18), variant KSSQSQLYESRPKNSVA / SASTRES / QQYHRLPLK [Ctrl].
Result 1.70 (3 of 6 replicates; controls 0 of 18), variant ILSQSVLMGMHTKNSVA / QATMRFN / QQYHHLPLM [En_HC].
Result 0.02 (6 of 6 replicates; controls 1 of 18), variant KLQQSVGYESRNKNSVA / EASTRES / QQYHRLPLS [GP_Gen].
Result 1.85 (4 of 6 replicates; controls 0 of 18), variant KSLFSWLYESRNKNSVA / HASTREQ / QQYHRLPLS [GP_HC].
Result -0.21 (6 of 6 replicates; controls 0 of 18), variant KSETGVLYESRNKNSVA / GASTRES / QQYHRLPLS [GP_HC].
Result 2.23 (1 of 6 replicates; controls 1 of 18), variant KLMMSLQGEPKDWYAIA / EGESATT / QQYARLPLM [En_Gibbs].
Result 0.55 (6 of 6 replicates; controls 1 of 18), variant KVSQSMLYESGTKNSVA / NASSRES / QQYHRLPLS [GP_HC].
Result 0.79 (6 of 6 replicates; controls 1 of 18), variant KSLWSVLYESNNKNSVA / QASTRED / QQYHRLPLS [GP_HC].
Result 0.33 (6 of 6 replicates; controls 3 of 18), variant KLSQSWLYESRNFWSVA / NASTRES / QQYHRLPLS [GP_HC].
Result -0.07 (6 of 6 replicates; controls 3 of 18), variant KLMQSQLYESRNKNSVA / NASTRES / QQYHRLPLS [GP_Gen].
Result 0.72 (6 of 6 replicates; controls 2 of 18), variant KITDKFLTEGNGRQNIA / HAMVAYE / QQYQQLPLA [En_Gibbs].
Result 1.00 (6 of 6 replicates; controls 0 of 18), variant KLQWSVMLQSRNKNSVA / QASQRMM / QQYHRLPLS [GP_Gibbs].
Result 1.04 (6 of 6 replicates; controls 1 of 18), variant KLRMMTLTEGYFKNSVA / QAETREN / QSYHRLPLS [En_HC].
Result 2.25 (5 of 6 replicates; controls 1 of 18), variant MLSQMWALGMKVSNSVA / QAQTRFN / QQYERLPLI [En_Gen].
Result 0.41 (6 of 6 replicates; controls 4 of 18), variant KSSISVPYESMNKNSVA / EASTRES / QQYHRLPLS [GP_HC].
Result 1.20 (6 of 6 replicates; controls 1 of 18), variant MMDNCQEGYYQKNNNVA / EMNARML / QQYGRLPLM [En_Gibbs].
Result 1.57 (6 of 6 replicates; controls 0 of 18), variant TISQSVNMTSRGKNSVA / QAEMRED / QQYDRLPLS [En_HC].
Result 0.03 (6 of 6 replicates; controls 2 of 18), variant KSDQGALYESRNKNSVA / GASQRWS / QQYHRLPLS [GP_HC].
Result -0.03 (6 of 6 replicates; controls 0 of 18), variant KLQQSVGYESRNKNSVA / NASTREE / QQYHRLPLS [GP_Gen].
Result 0.49 (6 of 6 replicates; controls 0 of 18), variant RIKCRSLEHGGQNNAIA / AAAKLVT / QQYARLPLA [En_Gibbs].
Result 0.90 (6 of 6 replicates; controls 0 of 18), variant MVSMMPNEPTRDSNAIA / DHSQRNT / QQYDRLPLS [En_Gibbs].
Result 0.60 (6 of 6 replicates; controls 0 of 18), variant KSGQGVDYESRNKNSVA / RASTRES / QQYHRLPLS [GP_HC].
Result 0.93 (6 of 6 replicates; controls 1 of 18), variant HLNGEWNHGANRDNNIA / EAQLVAA / QDYFRLPFI [En_Gibbs].
Result 0.90 (6 of 6 replicates; controls 0 of 18), variant HMSMLTLQGMRHTNSVA / QMTTRVN / QQYDRLPLT [En_Gen].